Key:
[1] = test system: Human ovarian cancer cell line (A2780); test: Potentiation of antitumor effect of doxorubicin, A2780 subcutaneous implant in nude mice (Test Example 6); type: in vivo, BALB/cA Jcl-nu/nu mice; conditions: doxorubicin 7 mg/kg/day day 1, 8
Experimental: In the groups receiving only Compound-I, the test liquid was prepared by diluting Compound-I with 0.5% HPMC to enable administration at a Compound-I dose of 16 mg/kg/day. […] FIG. 11 and Table 15 show the results.

[2] = test system: Human stomach cancer cell line (4-1ST); test: Potentiation of effect of trastuzumab (Herceptin), 4-1ST subcutaneous implant in nude mice (Test Example 11); type: in vivo, BALB/cA Jcl-nu/nu mice; conditions: Herceptin 20 mg/kg/day, Day 1, 8, i.p.
Experimental: According to the package insert, 7.2 mL of water for injection was added to a vial containing 150 mg of trastuzumab (Roche Pharma) using a sterilized injection syringe. The resulting 21 mg/mL solution was kept in a freezer. At the time of use, the frozen solution was diluted 10.5-fold with 4.75 mL of physiological saline at a trastuzumab concentration of 2.0 mg/mL, to yield a liquid for administration at a trastuzumab dose of 20 mg/kg/day. The test liquids of Compound-I were prepared to enable administration at doses of 16 and 24 mg/kg/day.
Compound-I and trastuzumab were administered once a day from Day 1 to 14. […] FIGS. 17A and 17B and Table 20 show the results. In the medium/Compound I administration group, the test liquid was orally administered once a day for consecutive days. In the trastuzumab administration group, the test liquid was intraperitoneally administered once a day for consecutive days.

## COc1cccc2c1C(=O)c1c(O)c3c(c(O)c1C2=O)C[C@@](O)(C(=O)CO)C[C@@H]3O[C@H]1C[C@H](N)[C@H](O)[C@H](C)O1 [Doxorubicine, doxorubicin, reference compound]
[1]
  RTV day 15 Mean ± SD: 12.50 ± 3.19

## Herceptin: trastuzumab (Roche Pharma), antibody molecular target drug
[2]
  RTV^b) (mean ± SD): 4.15 ± 0.42
  TGI^c) (%): 41.4%

From patent publication US9375434B2, “Antitumor effect potentiator composed of imidazooxazine compound” (Taiho Pharmaceutical Co., Ltd., priority 2012, dated 2016)
